Patent publication US10881750B2, “Sentinel lymph node marker capable of multi-mode imaging” (NATIONAL CANCER CENTER, priority 2010, dated 2021)

Key:
[1] = foot pad injection 80 uCi/50 uL, 60 minutes after injection, three white mice, FIG. 7

[Tc-99m]Tc-indocyanine green-Evans blue-human serum albumin
uptake of the marker in SPECT gamma images (foot pad injection 100 uCi, 60 minutes after injection, NanoSPECT): only the injected area and the lymph node had a strong uptake of the marker, while other organs did not show any uptake of the marker
time the marker can remain in the sentinel lymph node (foot pad injection, white mice): at least 1 hour
uptake level (radioactivity of each tissue, percentage relative to injection amount) [1]: significantly higher in the sentinel lymph node than in other organs
